# Data taken from patent publication US20160122307A1, “PERHYDROQUINOXALINE DERIVATIVES” (DR. AUGUST WOLFF GMBH & CO. KG ARZNEIMITTEL, priority 2013, published 2016).
# Protein sequences, listed by entry. Tags and fused reporters are not part of them.
# UniProt P41145, whole entry: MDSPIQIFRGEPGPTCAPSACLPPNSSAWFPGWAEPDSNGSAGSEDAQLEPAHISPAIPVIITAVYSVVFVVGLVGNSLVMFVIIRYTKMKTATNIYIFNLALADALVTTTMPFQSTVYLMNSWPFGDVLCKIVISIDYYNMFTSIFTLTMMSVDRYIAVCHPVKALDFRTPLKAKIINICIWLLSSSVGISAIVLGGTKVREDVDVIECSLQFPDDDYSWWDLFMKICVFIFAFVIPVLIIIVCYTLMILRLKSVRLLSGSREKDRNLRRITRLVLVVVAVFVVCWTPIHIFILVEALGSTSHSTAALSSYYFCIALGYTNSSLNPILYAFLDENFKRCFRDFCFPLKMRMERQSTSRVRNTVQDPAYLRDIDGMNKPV
# Biological target: Human opiate κ receptors (Homo sapiens, UniProt P41145)
# Experiment: κ opioid receptor functional assay, [35S]GTPγS binding (assay C)
# Format: biochemical
# Settings: read-out: GTPγS EC50, κ opioid functional activity, human recombinant κ receptors in HEK-293 membranes, EC50 grouped in three classes
row,SMILES,EC50
1,COC(=O)c1ccc(C(=O)N2CCN(C(=O)Cc3ccc(Cl)c(Cl)c3)C3C(N4CCCC4)CCCC32)cc1 (racemic),10 to 100 nM
2,COC(=O)c1ccc(C(=O)N2CCN(C(=O)Cc3ccc(Cl)c(Cl)c3)C3C(N4CCCC4)CCCC32)nc1 (racemic),10 to 100 nM
3,COC(=O)c1cccc(C(=O)N2CCN(C(=O)Cc3ccc(Cl)c(Cl)c3)C3C(N4CCCC4)CCCC32)c1 (racemic),10 to 100 nM
4,NC(=O)c1ccc(C(=O)N2CCN(C(=O)Cc3ccc(Cl)c(Cl)c3)C3C(N4CCCC4)CCCC32)cc1 (racemic),10 to 100 nM
5,O=C(c1ccccn1)N1CCN(C(=O)Cc2ccc(Cl)c(Cl)c2)C2C(N3CCCC3)CCCC21 (racemic),< 10 nM
6,O=C(c1ccco1)N1CCN(C(=O)Cc2ccc(Cl)c(Cl)c2)C2C(N3CCCC3)CCCC21 (racemic),< 10 nM
7,O=C(c1cccs1)N1CCN(C(=O)Cc2ccc(Cl)c(Cl)c2)C2C(N3CCCC3)CCCC21 (racemic),< 10 nM
